Target: KDM3A (Homo sapiens, UniProt Q9Y4C1)
Assay: KDM3 AlphaScreen assay (Table 2, ASSAY 9)
Type: biochemical

Sequences of proteins named here, by UniProt entry; tags and fusion partners are left off.
UniProt Q9Y4C1, whole entry: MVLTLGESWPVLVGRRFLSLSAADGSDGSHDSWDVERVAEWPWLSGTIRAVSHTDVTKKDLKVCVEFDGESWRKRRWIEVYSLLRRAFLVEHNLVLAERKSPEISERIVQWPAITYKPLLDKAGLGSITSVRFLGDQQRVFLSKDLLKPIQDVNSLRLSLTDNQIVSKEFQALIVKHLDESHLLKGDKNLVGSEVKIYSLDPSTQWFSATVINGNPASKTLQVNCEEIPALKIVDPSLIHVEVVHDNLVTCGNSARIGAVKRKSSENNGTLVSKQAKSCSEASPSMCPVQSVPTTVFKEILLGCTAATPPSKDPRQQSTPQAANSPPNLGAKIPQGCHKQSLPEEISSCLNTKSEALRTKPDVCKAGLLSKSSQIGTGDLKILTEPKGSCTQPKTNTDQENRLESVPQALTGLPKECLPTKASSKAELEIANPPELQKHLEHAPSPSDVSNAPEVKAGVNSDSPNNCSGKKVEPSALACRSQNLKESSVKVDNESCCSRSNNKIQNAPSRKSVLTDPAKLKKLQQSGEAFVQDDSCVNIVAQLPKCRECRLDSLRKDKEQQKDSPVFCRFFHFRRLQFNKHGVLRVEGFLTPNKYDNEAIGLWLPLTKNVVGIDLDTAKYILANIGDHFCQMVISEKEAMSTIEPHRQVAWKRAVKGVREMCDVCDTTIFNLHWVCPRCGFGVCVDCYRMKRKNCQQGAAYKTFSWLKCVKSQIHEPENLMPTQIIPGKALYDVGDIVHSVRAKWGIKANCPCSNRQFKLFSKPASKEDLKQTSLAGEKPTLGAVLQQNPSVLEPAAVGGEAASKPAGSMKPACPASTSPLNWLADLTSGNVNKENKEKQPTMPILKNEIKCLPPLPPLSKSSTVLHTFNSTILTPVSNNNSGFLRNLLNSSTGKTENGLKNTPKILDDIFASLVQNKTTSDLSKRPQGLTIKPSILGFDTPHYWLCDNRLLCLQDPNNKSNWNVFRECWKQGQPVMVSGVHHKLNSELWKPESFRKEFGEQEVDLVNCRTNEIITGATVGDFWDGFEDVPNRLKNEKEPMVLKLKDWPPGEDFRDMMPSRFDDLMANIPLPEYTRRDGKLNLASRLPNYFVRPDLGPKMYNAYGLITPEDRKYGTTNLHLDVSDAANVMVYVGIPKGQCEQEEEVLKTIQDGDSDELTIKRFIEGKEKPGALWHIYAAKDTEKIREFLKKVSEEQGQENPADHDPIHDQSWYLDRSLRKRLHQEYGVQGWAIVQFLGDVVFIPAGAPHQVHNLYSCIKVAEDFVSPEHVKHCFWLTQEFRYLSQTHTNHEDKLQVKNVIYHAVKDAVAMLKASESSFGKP

Which IC50 does the source give for `CN(C)c1ccc(-c2ccc(OC3CCN(C(=O)c4ccccc4OC(=O)c4ccccc4OC(=O)N4CCOCC4)CC3)nc2)cc1` here?
Its IC50 is 24.3 µM.
